The values that follow come from patent publication US20090143279A1 (priority 2007, published 2009).

For test [1], the system named is mitochondrial membrane potential.
In test [2] the test system is cellular dehydrogenase activity. The conditions noted are these: Conc 20 μM.

Where two headings read alike, the source gives them in different places.

As to amyleine, the mitoOX with mtOXPHOS transcripts is listed as −0.344. Also, the cyt c in the test on cytochrome c was −0.010. In test [1], this compound returned a ΔΨm of −0.888. For the same compound, the ROS with reactive oxygen species turned out to be 1.284.

As to `C=C1CCC=C(C)C(=O)CC2C(C)CC12` (stereo not drawn) [15-norcaryophyllen-3-one], the MTT in test [2] (normalized composite Z-score vs mock-treated (DMSO) wells) is −1.582.

The compound `NCCCCN` [putrescine] displayed a ΔΨm in test [1] of −0.888.

In the case of `CCC[C@@H]1C[C@@H](C(=O)N[C@@H]([C@H]2O[C@H](SC)[C@H](O)[C@@H](O)[C@H]2O)[C@H](C)Cl)N(C)C1` [clindamycin], in the test on cytochrome c, the cyt c is given as −0.521 and the “cyt c (composite Z-score vs DMSO mock-treated wells)” value is recorded as 0.525.

Turning to `CCn1cc(C(=O)O)c(=O)c2cc(F)c(N3CCN(C)CC3)cc21` [pefloxacine], in the test with cytochrome c, the cyt c stood at 0.113.

As to nonoxynol-9, the cyt c with cytochrome c (composite Z-score vs mock-treated (DMSO) wells, concentration of each compound in μM) was found to be 0.189.

`COC(=O)C[C@H]1C(C)(C)[C@@H](OC(C)=O)[C@@H]2CC3=C4CC(=O)O[C@@H](c5ccoc5)[C@]4(C)CC[C@@H]3[C@@]1(C)C2=O` [fissinolide] registered an MTT in test [2] (composite Z-score vs mock-treated (DMSO) wells) of −1.576.

For trisodium ethylenediamine tetracetate, the cyt c in the test with cytochrome c came out at 0.392.

`Cc1cc(C(C)(C)CC(C)(C)C)ccc1OCCOCC[N+](C)(C)Cc1ccccc1` [methylbenzethonium]: the cyt c with cytochrome c is on record as −1.750.

Regarding `CC(=O)[C@H]1CC[C@H]2[C@@H]3CC[C@H]4C[C@H](O)CC[C@]4(C)[C@H]3C(=O)C[C@]12C` [alfaxalone], the cyt c with cytochrome c came to 0.093.

The compound Thimerosal [reference compound] returned a cyt c in the test with cytochrome c of −5.732.

With `CC(=O)CCCCn1c(=O)c2c(ncn2C)n(C)c1=O` [pentoxifylline], in the test on mtOXPHOS transcripts (20 μM, composite Z-score vs DMSO), the mitoOX was −0.344.

Regarding `CC(=O)O[C@@H]1CC2C(C)(C)C=CC(=O)[C@]2(C)C2CC[C@@]3(C)[C@H](c4ccoc4)OC(=O)C4OC43[C@@]21C` (stereo partly drawn) [isogedunin], the ROS in the test with reactive oxygen species (composite Z-score vs mock-treated (DMSO) wells, Conc 20 μM) was found to be 1.276.

For `C[C@@H]1C[C@H]2[C@@H]3C[C@H](F)C4=CC(=O)C=C[C@]4(C)[C@@]3(F)[C@@H](O)C[C@]2(C)[C@@]1(O)C(=O)CO` [flumethasone], the “cyt c (composite Z-score vs DMSO)” value in the test with cytochrome c is listed as −0.073.
